Assays:
[1] = test system: COS Cell; assay: COS Cell IC50 (Cell-Based Assay); conditions: read-out: COS Cell IC50
Description: (§1) FPT IC50 (inhibition of famesyl protein transferase, in vitro enzyme assay) and COS Cell IC50 (Cell-Based Assay) were determined following the assay procedures described in WO 95/10516, published Apr. 20, 1995. GGPIT IC50 (inhibition of geranylgeranyl protein transferase, in vitro enzyme assay), Cell Mat Assay, and anti-tumor activity (in vivo anti-tumor studies) could be determined by the assay procedures described in WO 95/10516. The disclosure of WO 95/10516 is incorporated herein by reference thereto.

Chains of the proteins cited; added tags and fusions are not shown.
UniProt P49356, whole entry: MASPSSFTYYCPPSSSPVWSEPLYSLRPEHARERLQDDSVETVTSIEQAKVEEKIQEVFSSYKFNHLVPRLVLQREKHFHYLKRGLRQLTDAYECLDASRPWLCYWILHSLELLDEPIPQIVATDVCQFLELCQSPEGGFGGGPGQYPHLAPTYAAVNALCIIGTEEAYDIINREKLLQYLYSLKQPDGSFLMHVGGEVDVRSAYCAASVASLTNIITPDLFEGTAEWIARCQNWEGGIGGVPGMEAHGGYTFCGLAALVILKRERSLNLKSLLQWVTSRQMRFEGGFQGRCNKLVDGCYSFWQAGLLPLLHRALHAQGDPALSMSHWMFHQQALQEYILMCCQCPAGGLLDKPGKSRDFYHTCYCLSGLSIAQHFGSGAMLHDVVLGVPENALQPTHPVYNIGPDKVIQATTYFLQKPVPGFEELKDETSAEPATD

[2] = target: farnesyl protein transferase (Homo sapiens, UniProt P49354+P49356); assay: FPT IC50 (inhibition of farnesyl protein transferase, in vitro enzyme assay); conditions: read-out: FPT IC50
Description: as §1

IC50 [2] [nM]	Compound	IC50 [1] [nM]
5.5	O=C(C=C1CCOCC1)N1CCC([C@H]2c3ncc(Br)cc3CCc3cc(Cl)cc(Br)c32)CC1	285
3.5	O=C(CC1CCSCC1)N1CCC([C@H]2c3ncc(Br)cc3CCc3cc(Cl)cc(Br)c32)CC1	143
